Columns and labels:
Format in all cases: cell-based
[1] = system: cumulus enclosed mouse oocytes; assay: FSH induced resumption of meiosis of mouse oocytes cultured in vitro (dbc-AMP control medium); conditions: FSH 75 IU/L alone in control medium (200 μM dbc-AMP), 22-24 h culture
Experimental: Immature female mice (B6D2-F1 strain C57B1/2J) were kept under controlled light and temperature conditions with free access to food and water. Ovarian stimulation was performed when the mice weighed 10–16 grams and consisted of an intra-peritoneal injection of Gonadoplex (Leo, Copenhagen, Denmark) containing 7.5 U/mouse. The animals were killed by cervical dislocation 44–48 h later. The media used for the culture of oocytes consisted of α-Minimum Essential Medium (α-MEM), with Earles Balanced Salt Solution (EBSS), 200 μM dibuturyl-cyclic-adenosine-mono-phosphate (dbc-AMP), 3 mg/ml Bovine Serum Albumin, 0,23 mM pyruvate, 2 mM glutamine, 100 IU/ml penicillin and 100 mg/ml streptomycin (i.e. control medium). The ovaries were recovered and oocytes isolated from the ovaries by puncturing individual follicles using a 25 gauge needle. The oocytes were washed 3 times in control medium before the start of each experiment. Cumulus enclosed oocytes were cultured separately in 4-well dishes (Nuncleon, Roskilde, Denmark), 0.4 ml medium in each well containing control medium or medium supplemented with ketoconazole in a 100% humidified atmosphere of 5% CO2 with 95% air at 37° C. […] By the end of the culture period, germinal vesicle breakdown (GVBD) was scored by examining the oocyte in an inverted microscope. The percentage of oocytes with GVBD per total number of oocytes (% GVBD) was calculated. […]

[2] = system: cumulus-enclosed oocytes (CEO); assay: FSH induced resumption of meiosis of hypoxanthine arrested mouse oocytes cultured in vitro (ketoconazole); conditions: FSH 50 IU/L alone in HX-medium (4 mM hypoxanthine), 24 h
Experimental: Oocytes were obtained from immature mice (Kunming white mouse) weighing 14–16 g that were kept under controlled light and temperature conditions with free access to water. The mice received an intra peritoneal injection of 0.1 ml pregnant mare's serum gonadotrophin (PMSG, Sigma, New York, U.S.A) containing 10 IU PMSG. Forty-six hours later, the animals were killed by cervical dislocation. The ovaries were dissected out and placed in M199 culture medium (GIBCO, U.S.A) containing 4 mM hypoxanthine, 3 mg/ml bovine serum albumin, 0.23 mM pyruvate, 2 mM glutamine (all Sigma, U.S.A) and 100 IU/ml penicillin, 100 ug/ml Streptomycin. This medium was termed “HX-medium”. A media similar to the above but without HX are termed “maturation-medium”. Oocytes were isolated in HX-medium under a stereo microscope by manual rupture of follicles using a pair of 5.5-gauge needles. Spherical oocytes with intact cumulus cells connection and displaying germinal vesicle were categorized as cumulus-enclosed oocytes (CEO). […] At the end of the culture period (i.e 24 h), oocytes with GV or GVBD, or polar body (PB) were counted using an inverted microscope with differential interference contrast equipment (Leica, German). The percentage of oocytes with GVBD per total number of oocytes (% GVBD) and the percentage of oocytes with PB formation per total number of oocytes (% PB) were calculated. […]

[3] = system: cumulus-enclosed oocytes (CEO); assay: FSH induced resumption of meiosis and cumulus expansion of hypoxanthine arrested mouse oocytes cultured in vitro (22-hydroxycholesterol); parameters: key to Cumulus expansion: 0: No expansion, compact cumulus layer surrounding the oocyte; +: A slight cumulus expansion, the most peripheral cumulus cell looks a little fluffy; ++: good expansion of cumulus cell without a spherical cloud like expansion; +++: full cumulus expansion with a fluffy cloud like expansion with extended distance between the somatic cells; conditions: FSH 75 IU/L alone
Experimental: Immature female mice (B6D2-F1 strain C57B1/2J) were kept under controlled light and temperature conditions with free access to food and water. Ovarian stimulation was performed when the mice weighed 10–16 grams and consisted of an intra-peritoneal injection of Gonadoplex (Leo, Copenhagen, Denmark) containing 7.5 U/mouse. The animals were killed by cervical dislocation 44–48 h later. The media used for the culture of oocytes consisted of α-Minimum Essential Medium (α-MEM), with Earles Balanced Salt Solution (EBSS), containing 4 mM hypoxanthine, 3 mg/ml bovine serum albumin, 0.23 mM pyruvate, 2 mM glutamine (all Sigma, U.S.A) and 100 IU/ml penicillin, 100 ug/ml Streptomycin. This medium was termed “HX-medium”. A media similar to the above but without HX are termed “maturation-medium”. Oocytes were isolated in HX-medium under a stereo microscope by manual rupture of follicles using a pair of 5.5-gauge needles. Spherical oocytes with intact cumulus cells connection and displaying germinal vesicle were categorized as cumulus-enclosed oocytes (CEO). Oocytes were rinsed 3 times in fresh HX-medium. Prior to each experimental set-up, all oocytes from 10–15 mice were pooled. Only oocytes with a germinal vesicle present were used and distributed in separate wells of a 4-well dish (Nuncoln, Denmark) containing 1 ml of HX-medium. Each well contained 20–30 oocytes and was cultured at 37° C. in 100% humidity in air with 5% CO2. Each experiment was repeated at least 4 times. At the end of the culture period (i.e 24 h), oocytes with GV or GVBD, or polar body (PB) were counted using an inverted microscope with differential interference contrast equipment (Leica, German). […]
To the control medium FSH (Puregon, Organon, Oss, The Netherlands) 75 IU/L was added. To the medium containing FSH 75 IU/L, 22-hydroxycholesterol in the designated concentrations was added and all media were subjected to culture together with mouse oocytes.
Graduation of cumulus expansion: 0: No expansion, compact cumulus layer surrounding the oocyte; +: A slight cumulus expansion, the most peripheral cumulus cell looks a little fluffy; ++: good expansion of cumulus cell without a spherical cloud like expansion; +++: full cumulus expansion with a fluffy cloud like expansion with extended distance between the somatic cells.

[4] = with fetal calf serum in the medium
[5] = without fetal calf serum, HX-medium, 24 h

**Q.** Which “% GVBD” value [1] does the source give for “FSH: follicle stimulating hormone: Metrodin HP, Serono (Ex. 1); Sigma (Ex. 2); Puregon, Organon (Ex. 3)” here?
**A.** Its value is 31%.

**Q.** And the “% PB (PB/GVBD)” value [1]?
**A.** The value was 66%.

**Q.** And the “% GVBD” value [2]?
**A.** The value was 59%.

**Q.** What about the “% PB (PB/GVBD)” value [2] of the same substance?
**A.** Its value is 35%.

**Q.** What about the “% GVBD” value [3, 4] of the same substance?
**A.** The value was 54%.

**Q.** What about the “% PB (PB/GVBD)” value [3, 4] of the same substance?
**A.** The value was 56%.

**Q.** And the Cumulus expansion [3, 4]?
**A.** The Cumulus expansion was “+++”.

**Q.** And the “% GVBD” value [3, 5]?
**A.** The value was 55%.

**Q.** And the “% PB (PB/GVBD)” value [3, 5]?
**A.** Its value is 76%.

Source: patent publication US7192768B2, “Synchronization of the cytoplasmatic and the nuclear maturation of oocytes in vitro” (Novo Nordisk A/S, priority 2001, dated 2007)
